Tested on: healthy vines
Assay: Treatment of healthy vines with citral (safety margin)
Conditions: up to 2500 ppm vs 500 ppm

CC(C)=CCCC(C)=CC=O [citral, 3,7-dimethyl-2,6-octadien-1-al]
safety margin: ≥ 5 fold

— US20040248764A1 (priority 2001, published 2004)
